From US20090318468A1, “PYRAZOLE COMPOUNDS 436” (AstraZeneca AB, priority 2008, published 2009)

Amino acid sequences for entries named in this document (tags omitted).
UniProt P11712, whole entry: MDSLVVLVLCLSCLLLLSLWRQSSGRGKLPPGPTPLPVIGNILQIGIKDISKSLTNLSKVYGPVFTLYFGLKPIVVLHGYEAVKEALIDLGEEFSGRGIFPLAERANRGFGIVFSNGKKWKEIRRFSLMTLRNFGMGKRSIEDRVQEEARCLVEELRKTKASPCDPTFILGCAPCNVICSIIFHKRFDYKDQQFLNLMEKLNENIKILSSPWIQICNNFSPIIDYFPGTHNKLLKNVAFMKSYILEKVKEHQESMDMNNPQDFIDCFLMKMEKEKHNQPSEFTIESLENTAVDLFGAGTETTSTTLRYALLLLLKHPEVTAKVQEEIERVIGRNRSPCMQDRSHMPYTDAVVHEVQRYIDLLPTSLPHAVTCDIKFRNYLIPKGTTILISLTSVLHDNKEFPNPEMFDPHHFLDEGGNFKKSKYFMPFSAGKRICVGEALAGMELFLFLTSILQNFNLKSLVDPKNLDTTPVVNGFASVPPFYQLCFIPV

Target: human cytochrome P450 (CYP) 2C9 (Homo sapiens, UniProt P11712)
Test: Cytochrome P450 Inhibition Assay, CYP 2C9
Details: read-out: IC50 range (μM), CYP 2C9; expected IC50 range of known inhibitor (positive control)
Description: Cytochrome P450 Inhibition Assay
Microsomal subcellular fractions prepared from Yeast cell lines expressing each human CYP isoform were used as an enzyme source in this assay. The activity of the 5 major human CYPs was determined from the biotransformation of a number of coumarin substrates to fluorescent metabolites, in the presence of NADPH. […] Stock solutions of each CYP, with its respective substrate, were prepared in phosphate buffer pH 7.4 (see Table 1) and 178 μl was added to the well of a black solid, flat bottom, 300 μl 96 well microtitre plate (Corning Costar). […] After pre-incubating at 37° C. for 5 min the reactions were started with addition of NADPH (20 μl, concentration shown in Table 1). The final solvent content in each incubation was <=2% (1% from the test compound and a maximum of 1% from the substrate). The appropriate solvent controls and substrate blanks were included in each experiment to assess control activity and identify any inherent fluorescence due to the test compounds. In addition, known inhibitors of each CYP were included as positive controls (see Table 3 for inhibitor concentrations and expected IC50 ranges). […] The plates were read on a fluorimeter (Spectrafluor Plus) at the appropriate excitation and emission wavelengths (listed in Table 2) and the percent activity, corrected for control, was plotted against the test compound concentration.

Sulphaphenazole [reference compound]
IC50: 0.1 to 1 µM
